According to patent US10617670B2, “Synergistic auristatin combinations” (priority 2014, dated 2020):

Legend:
[1] = test system: panel of 81 protein kinases and Class III PI3K family hVps34; assay: Kinase screening services (Dundee University and Invitrogen); assay type: biochemical; settings: versus evaluated kinases
[2] = rat

COc1ccc(-c2cc3c(C)nc(N)nc3n([C@H]3CC[C@H](OCCO)CC3)c2=O)cn1 [Compound 1A, 2-amino-8-[trans-4-(2-hydroxyethoxy)cyclohexyl]-6-(6-methoxypyridin-3-yl)-4-methylpyrido[2,3-d]pyrimidin-7(8H)-one]
selectivity for the PI3K family [1]: > 500
oral bioavailability F(%) [2]: 56+/−16%
